Measured values taken from publication PMC5823845 (Bioorganic & Medicinal Chemistry, 2018).

By UniProt entry, the sequences of proteins in these tests, tags left out. Residues count along the entry.
UniProt P18911, 185-419 limits assumed: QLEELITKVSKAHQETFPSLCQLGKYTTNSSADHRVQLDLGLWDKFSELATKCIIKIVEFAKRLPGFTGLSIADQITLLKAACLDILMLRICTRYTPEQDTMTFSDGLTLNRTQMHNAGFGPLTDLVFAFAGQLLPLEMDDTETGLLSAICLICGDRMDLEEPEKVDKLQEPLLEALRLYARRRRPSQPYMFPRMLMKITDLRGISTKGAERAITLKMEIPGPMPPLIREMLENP
UniProt P22605, 210-444 limits assumed: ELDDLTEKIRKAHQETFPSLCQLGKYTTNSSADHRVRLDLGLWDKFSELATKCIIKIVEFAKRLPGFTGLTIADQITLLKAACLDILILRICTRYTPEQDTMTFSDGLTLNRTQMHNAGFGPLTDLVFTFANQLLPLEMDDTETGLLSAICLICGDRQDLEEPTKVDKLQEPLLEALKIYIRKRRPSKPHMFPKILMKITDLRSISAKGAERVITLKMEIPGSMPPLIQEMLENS
UniProt P11416, 183-417 limits assumed: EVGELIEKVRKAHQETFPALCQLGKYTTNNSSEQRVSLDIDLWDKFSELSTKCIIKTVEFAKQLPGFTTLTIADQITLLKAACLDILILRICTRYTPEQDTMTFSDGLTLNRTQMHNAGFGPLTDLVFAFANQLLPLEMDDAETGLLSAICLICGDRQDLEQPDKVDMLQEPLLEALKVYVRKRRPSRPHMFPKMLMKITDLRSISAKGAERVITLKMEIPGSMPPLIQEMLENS

Tests used:
human RAR gamma = conditions: human receptors
mouse RAR gamma receptor = mouse RAR gamma receptor (Mus musculus, UniProt P18911); conditions: for γ/α ratio: mouse, ratio of relative EC50s RARγ/RARα
human RAR beta = conditions: human receptors
mouse RAR beta receptor = mouse RAR beta receptor (Mus musculus, UniProt P22605); conditions: for β/α ratio: mouse, ratio of relative EC50s RARβ/RARα
[1] = molecular target: T1, biotinylated RARα ligand binding domain (Mus musculus, UniProt P11416); test: FlashPlate Scintillation Proximity Binding Assay, [3H]-retinoic acid competition
T1 construct: made in house; host or cells: E. coli JM109

mouse RAR alpha receptor = mouse RAR alpha receptor (Mus musculus, UniProt P11416)

| SMILES | γ/α ratio (mouse RAR gamma receptor) | β/α ratio (mouse RAR beta receptor) | LE (mouse RAR alpha receptor) | also measured |
| --- | --- | --- | --- | --- |
| CCOc1c(Cl)cc(C(=O)Nc2ccc(C(=O)O)c(C)c2)cc1OC(C)C [Compound 56, 4-(3-Chloro-4-ethoxy-5-isopropoxybenzamido)-2-methylbenzoic acid] | 11,000 | 200 | – | Selectivity γ/α ratio human (human RAR gamma): >13,000-fold; γ/α ratio hu (human RAR gamma): > 13,000; Selectivity γ/α ratio mouse (mouse RAR gamma receptor): 11,000-fold; Selectivity β/α ratio human (human RAR beta): 290-fold; Selectivity β/α ratio mouse (mouse RAR beta receptor): 200-fold |
| CC1=C(/C=C/C(C)=C/C=C/C(C)=C/C(=O)O)C(C)(C)CCC1 [ATRA, all-trans-retinoic acid, reference compound] | – | – | – | EC50 (mouse RAR gamma receptor; read-out: Mean of ATRA EC50, RARγ): 0.22 nM; IC50 [1]: 0.6 nM; EC50 (mouse RAR alpha receptor; read-out: Mean of ATRA EC50, RARα): 1.51 nM |
| CCOc1c(OC(C)C)cc(C(=O)Nc2ccc(C(=O)O)cc2)cc1OC(C)C [Compound 31, 4-(4-Ethoxy-3,5-diisopropoxybenzamido)benzoic acid] | 2190 | 175 | 0.36 | – |
| CCOc1c(Cl)cc(C(=O)Nc2ccc(C(=O)O)c(C)c2)cc1Cl [Compound 18, 4-(3,5-Dichloro-4-ethoxybenzamido)-2-methylbenzoic acid] | 151 | 82 | 0.51 | – |
| O=C(O)c1ccc(NC(=O)c2cc(Cl)c(OC3CCCC3)c(Cl)c2)cc1 [Compound 15, 4-(3,5-Dichloro-4-(cyclopentyloxy)benzamido)benzoic acid] | 452 | 33 | 0.41 | Selectivity γ/α ratio human (human RAR gamma): 2322-fold; γ/α ratio hu (human RAR gamma): 2322; Selectivity γ/α ratio mouse (mouse RAR gamma receptor): 452-fold; Selectivity β/α ratio human (human RAR beta): 289-fold; β/α ratio hu (human RAR beta): 289; Selectivity β/α ratio mouse (mouse RAR beta receptor): 33-fold |
| CCOc1c(Cl)cc(C(=O)Nc2ccc(C(=O)O)cc2)cc1OC(C)C [Compound 49, 4-(3-Chloro-4-ethoxy-5-isopropoxybenzamido)benzoic acid] | 11,721 | 150 | 0.47 | – |
| COc1c(Cl)cc(C(=O)Nc2ccc(C(=O)O)cc2)cc1OC(C)C [Compound 51] | 2043 | 283 | 0.44 | – |
| CC(C)Oc1cc(C(=O)Nc2ccc(C(=O)O)cc2)cc(Cl)c1OC(C)C [Compound 39, 4-(3-chloro-4,5-diisopropoxybenzamido)benzoic acid] | 838 | 54 | 0.43 | – |
| CCOc1c(Cl)cc(C(=O)Nc2ccc(C(=O)O)cc2)cc1Cl [Compound 5, 4-(3,5-dichloro-4-ethoxybenzamido)benzoic acid] | – | – | 0.45 | – |
| CC(C)(C)Oc1c(Cl)cc(C(=O)Nc2ccc(C(=O)O)cc2)cc1Cl [Compound 16, 4-(4-(tert-Butoxy)-3,5-dichlorobenzamido)benzoic acid] | 909 | 426 | 0.45 | – |
